In PubChem BioAssay AID1259375 (The Scripps Research Institute Molecular Screening Center, 2018):
Calls of active or inactive are those of the source. How the calls were made is not given here.

Sequences of proteins named here, by UniProt entry; tags and fusion partners are left off.
UniProt O75030, whole entry: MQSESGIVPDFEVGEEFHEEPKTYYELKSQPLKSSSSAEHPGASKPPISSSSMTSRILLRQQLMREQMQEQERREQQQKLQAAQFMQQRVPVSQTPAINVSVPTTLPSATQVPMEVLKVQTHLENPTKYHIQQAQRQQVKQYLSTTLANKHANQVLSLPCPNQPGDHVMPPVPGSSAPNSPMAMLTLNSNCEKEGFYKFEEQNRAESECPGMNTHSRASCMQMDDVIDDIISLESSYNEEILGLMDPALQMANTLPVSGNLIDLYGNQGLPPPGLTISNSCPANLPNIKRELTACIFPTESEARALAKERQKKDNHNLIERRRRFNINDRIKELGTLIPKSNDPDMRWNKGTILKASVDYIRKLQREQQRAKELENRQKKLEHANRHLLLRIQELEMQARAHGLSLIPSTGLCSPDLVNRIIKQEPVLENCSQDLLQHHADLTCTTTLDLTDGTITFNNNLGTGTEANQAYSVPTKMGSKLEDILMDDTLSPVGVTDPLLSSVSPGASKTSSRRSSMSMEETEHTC

Biological target: Microphthalmia-associated transcription factor (Homo sapiens) (UniProt O75030)
Assay: MITF inhibitors by FRET titration, dose response, biochemical, high throughput (AID 1259375);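 further: FRET between CFP-tagged and YFP-tagged MITF protein partners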
Settings: FRET biochemical assay, MITF inhibition

**Q.** Which IC50 does the source give for `O=[N+]([O-])c1cc2[nH]c3cc([N+](=O)[O-])c([N+](=O)[O-])cc3c2cc1[N+](=O)[O-]` here?
**A.** inactive: > 6.48 µM
